{
  "sequences": {"note": "By UniProt entry, the sequences of proteins in these tests, tags left out.", "UniProt Q9Y2T6, whole entry": "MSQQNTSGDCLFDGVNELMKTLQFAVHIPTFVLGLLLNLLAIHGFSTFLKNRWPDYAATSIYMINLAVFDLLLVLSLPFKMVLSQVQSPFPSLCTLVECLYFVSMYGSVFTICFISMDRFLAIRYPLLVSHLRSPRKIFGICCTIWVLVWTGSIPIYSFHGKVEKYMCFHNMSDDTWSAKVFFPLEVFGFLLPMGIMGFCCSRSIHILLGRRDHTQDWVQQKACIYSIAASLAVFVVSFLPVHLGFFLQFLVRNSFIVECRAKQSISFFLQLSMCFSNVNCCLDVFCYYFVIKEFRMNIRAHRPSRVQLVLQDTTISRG"},
  "source": "PubChem BioAssay AID1961",
  "about": "(Sanford-Burnham Center for Chemical Genomics, 2009)",
  "note": "Only a part is listed here, and it is no random draw. Active and inactive are the calls of the source.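 The calls were made as follows: active = activation above 40% with more than 50 cells counted in the well; inconclusive = wells holding fewer than 50 cells, flagged as toxic or sparse; inactive = the rest.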",
  "data": [
    {"biological_target": "G-protein coupled receptor 55 (Homo sapiens) (UniProt Q9Y2T6)", "assay": "GPR55 agonists via beta-arrestin recruitment, primary screen, imaging, U2OS cells, beta-arrestin-GFP redistribution (AID 1961);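 also: U2OS osteosarcoma cells stably expressing GPR55 and beta-arrestin-GFP; plate controls were DMSO negative control for no effect and LPI positive control for full effect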", "conditions": "at 10 µM, hits give high values", "values": [
      {"smiles": "Cc1cc(C)cc(N(C(=O)c2ccccc2)C2CCN(C(=O)OC(C)(C)C)CC2)c1", "activation": "inactive: 0%"},
      {"smiles": "O=C(NCC1(N2CCOCC2)CCCCC1)c1cc2ccccc2o1", "activation": "inactive: -0.1%"},
      {"smiles": "O=C(OC1CN2CCC1CC2)C1c2ccccc2Oc2ccccc21", "note": "(centres undefined)", "activation": "inactive: 0.3%"},
      {"smiles": "N#CC1(Nc2ccccc2)CCN(Cc2ccccc2)CC1", "activation": "inactive: 0.3%"},
      {"smiles": "CCOC(=O)N1CCC(Nc2ccc(OC)cc2)CC1", "activation": "inactive: -0.4%"},
      {"smiles": "CC(C)(C)OC(=O)N1CCC(N(C(=O)c2ccccc2)c2ccc(F)cc2)CC1", "activation": "inactive: -0.1%"},
      {"smiles": "COc1ccc(C(=O)NCC2(N3CCCCC3)CCCCC2)c(OC)c1OC", "activation": "inactive: -0.2%"},
      {"smiles": "COc1ccc(C(=O)NCC2(N3CCCCC3)CCCCC2)cc1", "activation": "inactive: 0.1%"},
      {"smiles": "O=C(NCC1(N2CCCCC2)CCCCC1)c1ccc(=O)[nH]c1", "activation": "inactive: -0.1%"},
      {"smiles": "CSc1ccccc1C(=O)NCC1(N2CCCCC2)CCCCC1", "activation": "inactive: -0.2%"},
      {"smiles": "Cc1ccc(OCC(C)C)c(CN(CCCl)CCCl)c1", "activation": "inactive: 0.3%"},
      {"smiles": "COc1cc(C(=O)NCC2(N(C)C)CCCCC2)ccc1OC(F)F", "activation": "inactive: 0%"},
      {"smiles": "CCOC(=O)N1CCC(Nc2cccc(C)c2)CC1", "activation": "inactive: -0.1%"},
      {"smiles": "CCOc1ccc(C)cc1CN(CCCl)CCCl", "activation": "inactive: 0.2%"},
      {"smiles": "CCOC(=O)N1CCC(Nc2ccc(F)cc2)CC1", "activation": "inactive: 1.2%"},
      {"smiles": "COc1ccc(NC2CCN(CCc3ccccc3)CC2)c(OC)c1", "activation": "inactive: -0.1%"},
      {"smiles": "O=C(NCC1(N2CCCCC2)CCCCC1)c1ccc(F)cc1", "activation": "inactive: -0.1%"},
      {"smiles": "O=C(NCC1(N2CCCCC2)CCCCC1)c1cccc(C(F)(F)F)c1", "activation": "inactive: -0.2%"},
      {"smiles": "O=C(NCC1(N2CCOCC2)CCCCC1)c1cc(=O)[nH]c2ccccc12", "activation": "inactive: -0.2%"},
      {"smiles": "COc1cc(C(=O)NCC2(N3CCCCC3)CCCCC2)ccc1OC(F)F", "activation": "inactive: -0.2%"},
      {"smiles": "COc1ccc(NC2CCN(C(=O)OC(C)(C)C)CC2)cc1", "activation": "inactive: -0.2%"},
      {"smiles": "CN1CCN(CCOC(=O)C(O)(c2ccccc2)c2ccccc2)CC1", "activation": "inactive: -0.2%"},
      {"smiles": "O=C(NCC1(N2CCCCC2)CCCCC1)c1ccc(OC(F)F)cc1", "activation": "inactive: 0%"},
      {"smiles": "N#CC1(Nc2ccccc2)CCN(CCc2ccccc2)CC1", "activation": "inactive: 0.3%"},
      {"smiles": "CCN1CCC(Nc2ccc(Cl)cc2)CC1", "activation": "inactive: -0.1%"},
      {"smiles": "O=C(NCC1(N2CCCCC2)CCCCC1)c1cccc([N+](=O)[O-])c1", "activation": "inactive: 0.1%"},
      {"smiles": "CCCOc1ccc(C(=O)NCC2(N(C)C)CCCCC2)cc1OC", "activation": "inactive: 0%"},
      {"smiles": "CC(C)c1ccc(NC2CCN(C(=O)OC(C)(C)C)CC2)cc1", "activation": "inactive: 1%"},
      {"smiles": "CN(C)c1cccc(C(=O)NCC2(N3CCCCC3)CCCCC2)c1", "activation": "inactive: 0%"},
      {"smiles": "COc1ccc(CN(CCCl)CCCl)cc1Cl", "activation": "inactive: -0.1%"},
      {"smiles": "COc1cc(OC)c(C(=O)NCC2(N(C)C)CCCCC2)cc1OC", "activation": "inactive: -0.1%"},
      {"smiles": "CCOC(=O)N1CCC(Nc2ccc(C)cc2)CC1", "activation": "inactive: -0.2%"},
      {"smiles": "N/C(=N\\O)c1c(N)no[n+]1[O-]", "activation": "inactive: -0.2%"},
      {"smiles": "O=C(OC1CN2CCC1CC2)C1c2ccccc2C=Cc2ccccc21", "note": "(centres undefined)", "activation": "inactive: -0.3%"},
      {"smiles": "COc1ccc(C(=O)NCC2(N3CCOCC3)CCCCC2)cc1OC", "activation": "inactive: 0.1%"},
      {"smiles": "CN(C)C1(CNC(=O)c2cccc(C#N)c2)CCCCC1", "activation": "inactive: -0.1%"},
      {"smiles": "CCCN1CCC(Nc2cc(OC)cc(OC)c2)CC1", "activation": "inactive: 0.3%"},
      {"smiles": "c1ccc(CN2CCC(Nc3ccccc3)CC2)cc1", "activation": "inactive: 0%"},
      {"smiles": "N#Cc1ccc(C(=O)NCC2(N3CCCCC3)CCCCC2)cc1", "activation": "inactive: -0.6%"},
      {"smiles": "CC(C)(C)OC(=O)N1CCC(N(C(=O)c2ccccc2)c2ccc(Cl)cc2)CC1", "activation": "inactive: -0.1%"},
      {"smiles": "CCN1CCC(Nc2cccc(F)c2)CC1", "activation": "inactive: 0.1%"},
      {"smiles": "CN(C)c1ccc(C(=O)NCC2(N3CCCCC3)CCCCC2)cc1", "activation": "inactive: -0.2%"},
      {"smiles": "COc1cc(OC)cc(C(=O)NCC2(N3CCCCC3)CCCCC2)c1", "activation": "inactive: -0.1%"},
      {"smiles": "Fc1ccccc1NC1CCN(Cc2ccccc2)CC1", "activation": "inactive: -0.2%"},
      {"smiles": "COc1cccc(C(=O)N(c2cc(C)cc(C)c2)C2CCN(C(=O)OC(C)(C)C)CC2)c1", "activation": "inactive: -0.1%"},
      {"smiles": "COc1cc(OC)cc(C(=O)NCC2(N3CCOCC3)CCCCC2)c1", "activation": "inactive: -0.7%"},
      {"smiles": "CCC(CO)(C(=O)OC1CN2CCC1CC2)c1ccccc1", "note": "(centres undefined)", "activation": "inactive: -0.2%"},
      {"smiles": "CN1CCC(Nc2ccc(Cl)cc2)CC1", "activation": "inactive: -0.1%"},
      {"smiles": "CCCOc1ccc(C)cc1CN(CCCl)CCCl", "activation": "inactive: -0.1%"},
      {"smiles": "CN1CCC(Nc2ccc(F)c(Cl)c2)CC1", "activation": "inactive: -0.2%"},
      {"smiles": "CCOc1ncccc1C(=O)NCC1(N2CCOCC2)CCCCC1", "activation": "inactive: 0.2%"},
      {"smiles": "O=C(O)C1(Nc2ccccc2)CCN(Cc2ccccc2)CC1", "activation": "inactive: 0.3%"},
      {"smiles": "CC(C)(C)OC(=O)N1CCC(Nc2ccccc2)CC1", "activation": "inactive: -0.2%"},
      {"smiles": "CCCOc1ccc(C(=O)NCC2(N(C)C)CCCCC2)cc1", "activation": "inactive: 0%"}
    ]}
  ]
}
